Measured values reported in US10214531B2 (Institute for Drug Discovery, LLC, priority 2013, dated 2019).

Chains of the proteins cited; added tags and fusions are not shown. Residues count along the entry.
UniProt Q9BZP6, 22-476 limits assumed: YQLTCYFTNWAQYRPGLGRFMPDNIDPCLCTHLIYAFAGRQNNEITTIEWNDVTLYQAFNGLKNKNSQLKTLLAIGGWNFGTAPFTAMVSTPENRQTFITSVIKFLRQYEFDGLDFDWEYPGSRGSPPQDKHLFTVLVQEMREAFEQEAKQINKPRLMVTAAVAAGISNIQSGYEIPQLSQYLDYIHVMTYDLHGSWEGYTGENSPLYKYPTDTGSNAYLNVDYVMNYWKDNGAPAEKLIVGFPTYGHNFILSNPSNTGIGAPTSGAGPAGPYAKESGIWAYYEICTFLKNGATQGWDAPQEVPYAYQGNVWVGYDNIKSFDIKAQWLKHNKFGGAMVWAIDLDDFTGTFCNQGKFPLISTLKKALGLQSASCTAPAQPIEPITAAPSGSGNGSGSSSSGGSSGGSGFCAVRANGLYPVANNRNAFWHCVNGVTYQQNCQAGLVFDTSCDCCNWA

Target: recombinant human AMCase (Homo sapiens, UniProt Q9BZP6)
Assay: Human AMCase Activity Assay
Format: biochemical
Settings: read-out: Activity (IC50 value key); recombinant hAMCase, 4-methylumbelliferyl chitobioside substrate, citrate buffer pH 5.2, 37° C., 60 minutes; tested form: HCl

Work on Nc1n[nH]c(N2CCC(NS(=O)(=O)Cc3ccc(Br)cc3)C(CO)C2)n1 (stereo not shown) yielded an IC50 of 1 to 10 µM.
